{"source": "PubChem BioAssay AID796", "about": "(Columbia University Molecular Screening Center, 2007)", "note": "The list shows a part of the results, in another mix than the full data. Calls of active or inactive are those of the source.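 Rule for the calls: active = inhibition above about 30% together with a positive call from visual inspection of the well image (limit read from the data); inconclusive = inhibition above a set limit but visual check negative; inactive = inhibition not above a set limit, visual check negative.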"}
{"assay": "inhibitors of IL-1B driven NFkB p65 nuclear import, primary screen, imaging, HUVEC, IL-1B stimulus, high-content imaging (AID 796);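 note: nuclear over cytoplasmic p65 intensity ratio measured by imaging; 0% = IL-1B stimulated DMSO wells and 100% = unstimulated DMSO wells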", "conditions": "HUVEC IL-1B NFkB p65 nuclear translocation imaging; at 2 µM; hits give high values"}
{"compound": "COc1ccc(NC2CCN(CCc3ccccc3)CC2)c(OC)c1", "inhibition": "inactive: 4.3%"}
{"compound": "O=C(NCC1(N2CCOCC2)CCCCC1)c1cc2ccccc2o1", "inhibition": "inactive: 6.7%"}
{"compound": "O=C(OC1CN2CCC1CC2)C1c2ccccc2Oc2ccccc21", "note": "(stereo not given)", "inhibition": "inactive: -23.4%"}
{"compound": "CN1CCC(Nc2cccc(F)c2)CC1", "inhibition": "inactive: -2.1%"}
{"compound": "N#CC1(Nc2ccccc2)CCN(CCc2ccccc2)CC1", "inhibition": "inactive: -23.6%"}
{"compound": "O=C(NCC1(N2CCOCC2)CCCCC1)c1cc(=O)[nH]c2ccccc12", "inhibition": "inactive: 4.3%"}
{"compound": "c1ccc(CN2CCC(Nc3ccccc3)CC2)cc1", "inhibition": "inactive: 1.6%"}
{"compound": "N/C(=N\\O)c1c(N)no[n+]1[O-]", "inhibition": "inactive: -29.9%"}
{"compound": "CCOc1ncccc1C(=O)NCC1(N2CCOCC2)CCCCC1", "inhibition": "inactive: 12.6%"}
{"compound": "CCC(CO)(C(=O)OC1CN2CCC1CC2)c1ccccc1", "note": "(stereo not given)", "inhibition": "inactive: -1.4%"}
